According to paper PMC7689250, “Synthetic Peptide Libraries Designed From a Minimal Alpha-Helical Domain of AS-48-Bacteriocin Homologs Exhibit Potent Antibacterial Activity” (Frontiers in Microbiology, 2020):

Legend:
[1] = tested on: S. pyogenes (M1); type: cell-based, Streptococcus pyogenes; details: for MBC: M1; for MIC: M1, 16 h
Protocol: (§1) Peptides were screened against Escherichia coli (BL21), Streptococcus pyogenes (M1T1 5448, hereby referred to as M1), Pseudomonas aeruginosa (PAO1), and Staphylococcus aureus (USA300). Overnight bacterial cultures were grown in optimal media for each species: Luria-Bertani (LB) broth for E. coli, P. aeruginosa, and S. aureus, and Todd-Hewitt (TH) broth for S. pyogenes. Cultures were pelleted and re-suspended in Mueller-Hinton (MH) broth for peptide screens or minimal inhibitory concentration (MIC) assays, with 1 × 10^6 CFU/mL bacteria added per well ([Wiegand et al., 2008]). MICs for each parent peptide were identified against each bacterial strain as previously described ([Fields et al., 2018]). Members of each peptide library were screened against each bacterial strain at half of the MIC of the corresponding parent peptide to identify library members with increased antimicrobial activity relative to the parent peptide. […] Minimal bactericidal concentrations (MBCs) were determined following the respective MIC assays by plating aliquots from wells corresponding to each peptide concentration from the 96-well plate used for the MIC on species-appropriate agar. Plates were incubated at 37°C overnight, and MBCs were identified as the lowest concentrations of peptide at which no colonies were obtained. A Synergy H1 Microplate Reader (BioTek, Winooski, VT, United States) was used to determine the MICs and identify peptides with greater antimicrobial activity than the corresponding parent peptide by measuring OD 600 of the bacterial cultures in 96-well microtiter plates.

[2] = tested on: P. aeruginosa (PAO1); type: cell-based, Pseudomonas aeruginosa; details: for MBC: PAO1; for MIC: PAO1, 16 h
Protocol: as §1

[3] = tested on: sheep erythrocytes; type: cell-based; details: red cells of sheep, 1 h
Protocol: To determine if peptide variants were hemolytic, fresh defibrinated whole sheep blood (Hardy Diagnostics) was washed three times in cold PBS, and washed blood was diluted 1:25 in PBS. Treatments were applied at a 1:10 ratio of sample:blood, where the sample was either 10% Triton, PBS, or a specific peptide concentration corresponding to concentrations used in the MIC assays. Treatments were incubated with the blood for 1 h at 37°C. Following incubation, samples were centrifuged at […] for 10 min at 4°C, and the absorbance of the supernatants at 450 nm was measured on the Synergy H1 Microplate Reader to measure the release of hemoglobin. Percent hemolysis was quantified by normalizing to the negative and positive controls.

[4] = tested on: E. coli (BL21); type: cell-based, Escherichia coli; details: for MBC: BL21; for MIC: BL21, 16 h
Protocol: as §1

[5] = tested on: S. aureus (USA300); type: cell-based, Staphylococcus aureus; details: for MBC: USA300; for MIC: USA300, 16 h
Protocol: as §1

Structure (SMILES)	MBC [1] [µM]	MIC [1] [µM]	MBC [2] [µM]	MIC [2] [µM]	Percent Hemolysis [3] [%]	MBC [4] [µM]	MIC [4] [µM]	MBC [5] [µM]	MIC [5] [µM]
CC[C@H](C)[C@H](NC(=O)[C@H](CO)NC(=O)[C@H](CCC(=O)O)NC(=O)[C@H](CCCNC(=N)N)NC(=O)[C@H](Cc1c[nH]c2ccccc12)NC(=O)[C@H](C)N)C(=O)N[C@@H](CCCCN)C(=O)N[C@@H](C)C(=O)N[C@@H](Cc1ccc(O)cc1)C(=O)N[C@@H](CC(C)C)C(=O)N[C@@H](CCCCN)C(=O)N[C@@H](CCCCN)C(=O)N[C@@H](CCC(=O)O)C(=O)N[C@H](C(=O)N[C@@H](CCCCN)C(=O)N[C@@H](CCCCN)C(=O)N[C@@H](CCCCN)C(=O)NCC(=O)N[C@@H](CCCCN)C(=O)N[C@@H](CCCNC(=N)N)C(=O)N[C@H](C(=O)N[C@H](C(=O)N[C@@H](C)C(=O)N[C@@H](C)C(=O)N[C@@H](Cc1c[nH]c2ccccc12)C(=O)O)C(C)C)[C@@H](C)CC)[C@@H](C)CC [Syn-enterocin-38]	16	16	32	32	14.4	8	4	>128	>128
CC[C@H](C)[C@H](NC(=O)[C@H](CO)NC(=O)[C@H](CCC(=O)O)NC(=O)[C@H](CCCNC(=N)N)NC(=O)CNC(=O)[C@H](C)N)C(=O)N[C@@H](CCCCN)C(=O)N[C@@H](C)C(=O)N[C@@H](Cc1ccc(O)cc1)C(=O)N[C@@H](CC(C)C)C(=O)N[C@@H](CCCCN)C(=O)N[C@@H](CCCCN)C(=O)N[C@@H](CCC(=O)O)C(=O)N[C@H](C(=O)N[C@@H](CCCCN)C(=O)N[C@@H](CCCCN)C(=O)N[C@@H](CCCCN)C(=O)N[C@@H](Cc1c[nH]c2ccccc12)C(=O)N[C@@H](CCCCN)C(=O)N[C@@H](CCCNC(=N)N)C(=O)N[C@H](C(=O)N[C@H](C(=O)N[C@@H](C)C(=O)N[C@@H](C)C(=O)N[C@@H](Cc1c[nH]c2ccccc12)C(=O)O)C(C)C)[C@@H](C)CC)[C@@H](C)CC [Syn-enterocin-46]	8	8	16	8	–	4	2	>128	32
